Bioassay records from PubChem BioAssay.
Nrf2 inh: Nrf2 pathway inhibition | A549 ARE-Fluc reporter, luciferase luminescence, 18-24 h | Potency, µM (top dose mostly 46 µM), hits mostly inhibitors | 360,000 compounds, 2.1% hits; further: nearly all actives have a fitted effect of over 60% in size
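A549 ARE_Fluc cells (5000/well, 5% FBS OPTI-MEM) pre-incubated 2 h, then treated with compounds 18-24 h at 37C/5% CO2 in concentration-response. CellTiter-Fluor viability read first; BugLite luciferase luminescence after 15 min at room temperature gives Nrf2 activity.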
GALK inh: galactokinase (human) inhibition. P51570. Purified GALK, Kinase-Glo residual ATP luminescence. Potency, µM (titrated, usually from 57.5 µM), most hits filed as inhibitors. 270,000 compounds, 0.007% hits. AID 1868
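GALK at 5 nM final was combined with compound, 35 uM ATP and 100 uM galactose in HEPES pH8.0 with MgCl2 and DTT. The reaction ran one hour at room temperature before luminescent ATP detection.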
PI4K2A block: inhibitors of human PI4K2A. Q9BTU6. 420,000 compounds, 0.13% hits. purified PI4K2A, ADP-Glo luminescence, 1 h; active compounds read low. activity change, negative = inhibition, % at 76.9 µM. AID 1346378; in the data active means activity change below about -50%; inconclusive means mostly about -30% to -49%
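PI4K2A activity was measured by ADP-Glo luminescence: enzyme (4 ug/mL stock) and phosphatidylinositol (1.2 mM stock) in Tris pH 7.5/MgCl2/EGTA/Triton X-100 buffer were reacted with ATP (300 microM stock) for one hour at ambient temperature.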
A549 viability: counter-screen for Nrf2 inhibitors: cytotoxicity in A549 cells; Potency, µM (highest dose often 46 µM), usual class: inhibitors; AID 504648; A549 ARE-Fluc cells, CellTiter-Fluor viability, 18-24 h; 390,000 compounds, 0.16% hits
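A549 ARE_Fluc cells in 5% FBS OPTI-MEM were exposed to compounds in concentration-response for 18-24 h at 37 deg C. Viability was read by CellTiter-Fluor fluorescence (Ex 405/Em 525) after 30 min, before the luciferase read.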
miR-21 FLuc: miR-21 reporter, rising signal | 340,000 tested, under 10 active | AID 2288 | HeLa miR-21 FLuc reporter, luciferase, 48 h | Potency, µM (titrated, usually from 38.3 µM); active = well fitted rising curve with a large enough effect; inconclusive = small, poorly fitted or top-dose-only effect; inactive = no such curve, though single readings can be large or run the other way;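 further: miR-21 action dims this reporter so a rising signal means less miR-21 action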
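Compounds were titrated across several concentrations (up to approximately 40 uM) and incubated 48 hours with HeLa miR-21-FLuc reporter cells (miR-21 target sequence downstream of FLuc, endogenous miR-21). Readout was firefly luciferase luminescence after lytic detection reagent.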
Nrf2 activator: Nrf2 pathway activation. AREc32 ARE-luciferase reporter (MCF7-derived line), luminescence, 24 h. Potency, µM (highest dose often 46.1 µM), usual class: activators. 410,000 compounds, 0.31% hits; further: nearly all actives have a fitted effect of over 65% in size
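Cells of the AREc32 ARE-luciferase line are plated in OPTI-MEM containing 5% FBS and left overnight at 37 deg C. Compounds are pinned in, incubation continues 24 hr, and firefly luciferase signal is then measured.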
Hits are given with their value; n = inactive; u = inconclusive; x = no result given; [ ] = remark or other dose. A selection: hits, their analogues and other compounds. The true share with any hit is near 2.2%. Unless noted, the call rests on the fitted dose curve; in most records, active means well fitted curve in the direction sought with a large enough effect; inconclusive means small, poorly fitted or top-dose-only effect, or another doubt; inactive means no such curve, though single readings can be large; an effect the other way counts as inactive or inconclusive.

SMILES | Nrf2 inh | GALK inh | PI4K2A block | A549 viability | miR-21 FLuc | Nrf2 activator
CCOC(=O)c1ccccc1NC(=O)NC(C)c1c(-n2cccc2)sc(C)c1C (stereo unspecified) | n | x | n | n | n | n
CCOc1ccc(NC(=O)NC(C)c2c(-n3cccc3)sc(C)c2C)cc1 (stereo unspecified) | 20.6µM | x | n | n | n | n
O=C(Nc1nc(-c2ccccn2)cs1)c1cccc(-n2cnnn2)c1 | 7.31µM | n | n | n | u | n
O=C(Nc1nc(-c2ccc(S(=O)(=O)N3CCCC3)cc2)cs1)c1cccs1 | x | n | n | n | n | n
COc1cccc(C(=O)Nc2nc(-c3ccc(S(=O)(=O)N4CCOCC4)cc3)cs2)c1 | 13µM | n | n | n | n | n
O=C(Nc1nc(-c2ccc(S(=O)(=O)N3CCCCCC3)cc2)cs1)c1cccs1 | 6.51µM | n | n | n | n | n
COc1cc(C(=O)Nc2nc(-c3ccc(F)cc3)cs2)ccc1OCC(=O)N1CCOCC1 | 20.6µM | n | n | n | n | n
COc1cc(C(=O)Nc2nc(-c3cc(C)ccc3C)c(C)s2)ccc1OCC(=O)Nc1ccc(F)cc1 | u | n | n | n | n | n
O=C(Nc1nc(-c2ccccn2)cs1)c1ccc(F)c(S(=O)(=O)N2CCOCC2)c1 | 8.2µM | x | n | u | x | n
O=C(Nc1nc(-c2ccccc2)cs1)C1CCCN(S(=O)(=O)c2cccc([N+](=O)[O-])c2)C1 (stereo unspecified) | u | n | n | n | n | n
O=C(Nc1nc(-c2ccccc2)cs1)C1CCCN(S(=O)(=O)c2ccccc2)C1 (stereo unspecified) | 20.6µM | n | n | n[1.84 µM] | u | n
O=C(Nc1ccc(Br)cc1)c1ccc(F)c(S(=O)(=O)N2CCN(c3ccccn3)CC2)c1 | 23.1µM | n | n | n | n | n
COc1ccc(-c2nc(NC(=O)c3ccc(OCC(=O)Nc4ccc(F)cc4)c(OC)c3)sc2C)cc1 | 14.6µM | n | n | u | n | n
Cn1nnnc1Sc1ncnc2scc(-c3ccccc3F)c12 | u | x | x | n | x | x
CCCCCCNC(=O)C1CSCCS(=O)(=O)N1Cc1ccc(OC)cc1 (stereo unspecified) | x | x | n | x | x | x
C=CCn1c(SCc2ccc(C(=O)Nc3nccs3)cc2)nnc1-c1ccc(C)c(Cl)c1 | 20.6µM | n | n | n | u | n
CN(CCc1ccccc1)C(=O)c1cccc(NC(=O)Cc2cccc(NC(=O)C3CCCN(C(=O)c4ccccc4)C3)c2)c1 (stereo unspecified) | 25.9µM | x | n | n | x | n
CN(CCc1ccccc1)C(=O)c1ccc(NC(=O)Cc2cccc(NC(=O)C3CCN(C(=O)CCc4ccccc4)CC3)c2)cc1 | n | x | n | n | x | n
CN(CCc1ccccc1)C(=O)c1ccc(NC(=O)Cc2ccc(NC(=O)C3CCN(C(=O)CCc4ccccc4)CC3)cc2)cc1 | 9.2µM | x | n | n | x | n
NC[C@H]1O[C@H](O[C@H]2[C@H](O[C@@H]3O[C@H](CO)[C@@H](O)[C@H]3O)C(O)[C@H](N)C[C@@H]2N)[C@H](N)[C@@H](O)[C@@H]1O (stereo partly specified) | x | x | n | x | x | x
COc1ccc(C=Nn2c(-c3ccccc3F)n[nH]c2=S)cc1OCc1ccccc1 | x | x | n | x | x | x
O=C(NC1CCCCN(Cc2cccc(Cl)c2)C1=O)c1ccc(Cl)cc1Cl (stereo unspecified) | x | x | n | x | x | x
CCOC(=O)C(C(=O)OCC)C(Nc1cccc(Br)c1)c1ccccc1 (stereo unspecified) | 18.4µM | n | n | u | u | u
O=C(NC(c1ccccc1)c1ccccc1)c1ccc(Br)o1 | n | n | n | u | n | n
O=C(/C=C/c1ccc(Br)o1)NC(c1ccccc1)c1ccccc1 | 25.9µM | n | n | n | n | n
SMILES | Nrf2 inh | GALK inh | PI4K2A block | A549 viability | miR-21 FLuc | Nrf2 activator
Cc1ccc(NC(=O)c2cc(S(=O)(=O)NCCC3=CCCCC3)ccc2F)cc1 | 14.6µM | n | n | u | n | n
CN1CCN(CC(=O)Nc2sc3c(c2C(=O)Nc2ccccc2)CCCC3)CC1 | n | n | n | n | n | n
NC(=O)c1c(NC(=O)CN2CCN(S(=O)(=O)c3ccccc3)CC2)sc2c1CCC2 | 18.4µM | x | n | u | x | n
O=C(O)C1=CC(=C(c2ccc(O)c(C(=O)O)c2)c2ccc(O)c(C(=O)O)c2)C=CC1=O | x | x | -85.7 | x | x | x
O=C(O)c1cc(O)ccc1O | n | x | n | n | x | n
CN1N=C(C(N)=O)CCC1=O | x | x | n | x | x | x
O=C(CSCc1cccc(Cl)c1)N/N=C/c1ccc(OCC(=O)N2CCCCC2)cc1 | 18.4µM | n | n | n | n | n
Cc1cc(C)cc(CSCC(=O)N/N=C/c2ccc(OCC(=O)NCc3ccco3)cc2)c1 | 14.6µM | n | n | n | n | n
COc1ccc(CSCC(=O)N/N=C/c2ccc(OCC(=O)NCc3ccco3)cc2)cc1 | u | n | n | n | n | n
COC(=O)[C@H](C)NC(=O)[C@H](CC(C)C)NC(=O)OC(C)(C)C | x | x | n | x | x | x
Cc1cc(C)cc(NC(=O)N2CCC(c3nc4ccc(Cl)cc4[nH]3)CC2)c1 | x | x | n | x | x | x
COc1ccc(NC(=O)C(Cl)=C(Cl)Cl)cn1 | n | n | n | n | n | u
COc1ccc(NC(=O)/C(Cl)=C(/Cl)S(=O)Cc2ccc(Cl)cc2)cn1 (stereo unspecified) | u | n | n | 20.6µM | u | n[9.22 µM]
CCC(=O)C1=C(O)C(c2cccc(Oc3ccccc3)c2)CCC1=O (stereo unspecified) | 14.6µM | n | n | u | n | n
COc1ccc2c(c1)C(=O)CCC2c1ccccc1 (stereo unspecified) | n | n | n | n | n | n
CCOc1ccc(CN(C)C(=O)[C@H](Cc2ccccc2)NC(=O)OCc2ccccc2)cc1OC | 20.6µM | n | n | u | u | n
COc1cccc(CN[C@@H]2CC[C@@]34CCCN3C(=O)CCC[C@H]4C2)c1 | x | x | n | x | x | x
COc1ccc(-c2nc3cc(NC(=O)Cc4ccc(OC)c(OC)c4)ccc3o2)cc1 | 14.6µM | n | n | u | n | n
COc1ccc(CC(=O)Nc2ccc(-c3cn4cccc(C)c4n3)cc2)cc1OC | 7.31µM | n | n | n | n | n
COc1ccc(-c2nc3cc(NC(=O)Cc4ccc(Cl)cc4)ccc3o2)cc1OC | 23.1µM | x | n | u | n | n
COc1ccc(Cl)cc1S(=O)(=O)NCCCn1ccnc1 | n | n | n | n | n | n
CCOc1cc(Cl)c(S(=O)(=O)NCCCn2ccnc2)cc1Cl | 16.4µM | n | n | n | n | n
CNC(=O)c1cc(Oc2ccc(NC(=O)Nc3ccc(Cl)c(C(F)(F)F)c3)cc2)ccn1 | 25.9µM | x | n | u | x | n
